Hits are enriched below; roughly 3.7% of the tested compounds scored in any of these assays.
Nrf2 inh – inhibitors of Nrf2 signaling | hit rate 2.1% among 360,000 | A549 ARE-Fluc reporter, luciferase luminescence, 18-24 h | AID 504444 | Potency, µM (titrated, usually from 46 µM), inactives show at the top dose activity change, negative = inhibition, usual class: inhibitors; further: potency means the concentration at half of the fitted maximal effect; on the % scale 0 is the no-effect control and ±100 the full control effect; nearly all actives have a fitted effect of over 60% in size
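Nrf2 function is reported as luminescence of an ARE-controlled luciferase in A549 cells. Compounds were tested at several concentrations, and a CellTiter-Fluor read on the same wells flagged cytotoxicity.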
Nrf2 ARE act – activates Nrf2 signaling. AREc32 ARE-luciferase reporter (MCF7-derived line), luminescence, 24 h. Potency, µM (titrated, usually from 46.1 µM), without a hit: at the top dose activation, most hits filed as activators. hit rate 0.31% among 410,000. AID 624171; further: potency means the concentration at half of the fitted maximal effect; % of control where 0% means no effect; nearly all actives have a fitted effect of over 65% in size
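Cells of the AREc32 ARE-luciferase line are plated in OPTI-MEM containing 5% FBS and left overnight at 37 deg C. Compounds are pinned in, incubation continues 24 hr, and firefly luciferase signal is then measured.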
miR-21 FLuc – miR-21 reporter, rising signal; Potency, µM (titrated, usually from 38.3 µM), without a hit: at the highest dose reporter change, positive = more light; AID 2288; 340,000 tested, under 10 active; HeLa miR-21 FLuc reporter, luciferase, 48 h; active = well fitted rising curve with a large enough effect; inconclusive = small, poorly fitted or top-dose-only effect; inactive = no such curve, though single readings can be large or run the other way;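 note: % of control where 0% means no effect; miR-21 action dims this reporter so a rising signal means less miR-21 action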
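Luminescence from a firefly luciferase reporter carrying a miR-21 binding site downstream, stably expressed under a CMV promoter in HeLa cells that make miR-21 endogenously, reports miRNA modulation after 48 h compound exposure up to approximately 40uM final.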
TCR activator – activates T cell receptor signaling. primary human leukocytes, anti-CD3, IL-2 HTRF, 48 h. Potency, µM (titrated, usually from 9.22 µM), without a hit: at the highest dose activation of IL-2 secretion, hits mostly activators. 330,000 tested, under 10 active; further: % of control where 0% means no effect
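Primary human leukocytes incubated 48 hr with anti-CD3 beads plus compound, without co-stimulation. Secreted IL-2 measured by HTRF (europium cryptate/d2 anti-IL-2 pair, 320 nm excitation, 665 nm emission).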
ClpP mod – qHTS Assay for Activators of ClpP | AID 651965, 2013 | purified B. subtilis ClpP, FRET peptide cleavage, 20 min | ATP-dependent Clp protease proteolytic subunit (Bacillus subtilis (strain 168)), P80244 | Potency, µM (top dose mostly 57.5 µM), without a hit: at the highest dose activity change, negative = active | hit rate 1.9% among 340,000; active means well fitted falling curve with a large enough effect; inconclusive means small, poorly fitted or top-dose-only effect; inactive means no such curve, though single readings can be large or run the other way; further: potency means the concentration at half of the fitted maximal effect; the source files actives as falling curves though it sought activators and does not explain the sign; nearly all actives have a fitted effect of over 65% in size
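Purified B. subtilis ClpP, 10 microg/mL final in Tris/HCl pH8 with KCl, BSA, glycerol and Tween-20, cleaved an Abz/nitrotyrosine-quenched decapeptide. Fluorescence (ex 320, em 430) was read at 0 and 20 min at room temperature. Delta was normalized to 5.8 microM ADEP and DMSO/no-enzyme controls.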
A549 viability – A549 cytotoxicity, counter-screen for Nrf2 inhibitors; A549 ARE-Fluc cells, CellTiter-Fluor viability, 18-24 h; Potency, µM (doses to about 46 µM), for inactives: at the top dose activity change, negative = cytotoxicity, most hits filed as inhibitors; hit rate 0.16% among 390,000; AID 504648; further: potency means the concentration at half of the fitted maximal effect; on the % scale 0 is the no-effect control and ±100 the full control effect
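Cytotoxicity counterscreen: CellTiter-Fluor fluorescence was measured in A549 ARE_Fluc cells after 18-24 h of compound exposure in a concentration series. The subsequent BugLite luminescent read reports ARE-luciferase activity.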
* = called active by the depositor; u = inconclusive; x = not tested or not shown; ! = not active in a repeat; [ ] = dose if it differs, or a comment. Unless noted, the call rests on the fitted dose curve; in most records, active means well fitted curve in the direction sought with a large enough effect; inconclusive means small, poorly fitted or top-dose-only effect, or another doubt; inactive means no such curve, though single readings can be large; an effect the other way counts as inactive or inconclusive.

The chains behind the UniProt entries cited, without tags or fusion partners.
ATP-dependent Clp protease proteolytic subunit (Bacillus subtilis (strain 168)), P80244, UniProt P80244, whole entry, looked up: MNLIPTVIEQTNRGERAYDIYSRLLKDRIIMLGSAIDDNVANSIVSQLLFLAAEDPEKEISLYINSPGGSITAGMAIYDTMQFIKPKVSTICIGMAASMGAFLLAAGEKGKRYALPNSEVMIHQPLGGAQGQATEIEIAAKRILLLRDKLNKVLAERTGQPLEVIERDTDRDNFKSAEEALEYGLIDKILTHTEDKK

(1) O=C(Nc1nc(-c2ccccn2)cs1)c1ccc([N+](=O)[O-])o1
(2) Cc1ccc(C)c(-c2nnc(NC(=O)C3=COCCO3)o2)c1
(3) O=C(Nc1nc2c(F)cc(F)cc2s1)c1ccc([N+](=O)[O-])o1
(4) Cc1ccc(C(=O)Nc2nc(-c3ccccn3)cs2)o1
(5) NS(=O)(=O)c1ccc(O)c(NC(=O)c2ccc([N+](=O)[O-])o2)c1
(6) O=C(Nc1nc2ccccc2s1)c1ccc([N+](=O)[O-])o1
(7) O=C(NNC(=O)c1ccc([N+](=O)[O-])o1)c1ccccc1
(8) COc1ccc2nc(NC(=O)c3ccc([N+](=O)[O-])o3)sc2c1
entry no.,1,2,3,4,5,6,7,8
Nrf2 inh,5%,-1%,15%,-26%,1%,u,x,u
Nrf2 ARE act,11µM*,3%,u,2%,10µM*,3.5µM*,22µM*,u
miR-21 FLuc,u,x,-15%,21%,11%,-13%,28%,-20%
TCR activator,-6%,7%,2%,1%,3%,-2%,-7%,x
ClpP mod,x,x,0%,1%,x,2%,1%,0%
A549 viability,-6%,-2%,-2%,1%,-11%,-5%,u,-20%

(9) Cc1cc(C)c2nc(NC(=O)c3ccc([N+](=O)[O-])o3)sc2c1
(10) Cc1cc(C)c2sc(NC(=O)c3ccc([N+](=O)[O-])o3)nc2c1
(11) Cc1sc2ccccc2[n+]1CCc1ccccc1
(12) O=C(Nc1cccc(Cl)c1)c1csc([C@@H]2O[C@H](CO)[C@H](O)[C@H](O)[C@H]2O)n1
(13) CCCCc1nnc(NC(=O)COc2ccc3c(C)cc(=O)oc3c2)s1
(14) COc1cc(/C=C/C(=O)O)cc(S(=O)(=O)NCCCO)c1OC
(15) C=C(C)c1cccc(C(C)(C)NC(=O)Nc2ccc(C)cn2)c1
(16) C=C(C)c1cccc(C(C)(C)NC(=O)Nc2nncs2)c1
entry no.,9,10,11,12,13,14,15,16
Nrf2 inh,5%,11%,x,x,x,-7%,u,5%
Nrf2 ARE act,u,7.9µM*,x,0%[9.22 µM],x,0%,6%,0%
miR-21 FLuc,3%,3%,x,x,8%,4%,-19%,-2%
TCR activator,x,-3%,x,x,x,4%,5%[46.1 µM],10%
ClpP mod,0%,-3%,-5%,1%,x,28µM*,1%,x
A549 viability,-14%,-10%,x,x,x,-3%,-7%,3%

Among those listed so far, these have four or more nitrogen atoms.
(1) O=C(Nc1nc(-c2ccccn2)cs1)c1ccc([N+](=O)[O-])o1
(16) C=C(C)c1cccc(C(C)(C)NC(=O)Nc2nncs2)c1
entry no.,1,16
Nrf2 inh,5%,5%
Nrf2 ARE act,11µM*,0%
miR-21 FLuc,u,-2%
TCR activator,-6%,10%
ClpP mod,x,x
A549 viability,-6%,3%

Additional records follow:
(17) C=C(C)c1cccc(C(C)(C)NC(=O)Nc2cc(C)ccn2)c1
(18) C=C(C)c1cccc(C(C)(C)NC(=O)Nc2ccc(OC)nc2)c1
(19) Cc1ccc(C)c(NCCCCCCCC(=O)O)c1
(20) c1ccc(CNCc2nnc(-c3cc4ccccc4[nH]3)o2)cc1
(21) O=C(COC(=O)c1cccc(F)c1)Nc1cccnc1Cl
(22) COc1ccc(Cl)cc1C(=O)OCC(=O)Nc1cccnc1Cl
(23) COc1cc(N)c(Cl)cc1C(=O)OCC(=O)Nc1cccnc1Cl
(24) O=C(COC(=O)c1ccc(Br)cc1)Nc1cccnc1Cl
entry no.,17,18,19,20,21,22,23,24
Nrf2 inh,15µM*,u,x,15%,5%,8%,-9%,5%
Nrf2 ARE act,3%,-1%,-1%,x,0%,2%,0%,3%
miR-21 FLuc,7%,0%,x,x,2%,x,x,x
TCR activator,3%[46.1 µM],1%,x,x,7%,x,-6%,3%
ClpP mod,1%,x,1%,x,25µM*,u,28µM*,-2%
A549 viability,u,12µM*,x,-3%,1%,20%,0%,0%

Structures shown so far with fluorine, in the order listed:
(3) O=C(Nc1nc2c(F)cc(F)cc2s1)c1ccc([N+](=O)[O-])o1
(21) O=C(COC(=O)c1cccc(F)c1)Nc1cccnc1Cl
entry no.,3,21
Nrf2 inh,15%,5%
Nrf2 ARE act,u,0%
miR-21 FLuc,-15%,2%
TCR activator,2%,7%
ClpP mod,0%,25µM*
A549 viability,-2%,1%

New compounds follow.
(25) Cc1[nH]ccc2cc3nc4ccccc4c3cc12
(26) C(=Nc1ccc(Nc2ccccc2)cc1)c1ccc2ccccc2c1
(27) Brc1ccc(C=Nc2ccc(Nc3ccccc3)cc2)s1
(28) Cc1ccc(S(=O)(=O)N(C)c2ccc(OCc3cccc(C)c3)cc2)cc1
(29) CN1CCN(C(=O)Cn2c(-c3cccs3)cc3ccccc32)CC1
(30) CN1CCN(C(=O)CN2C(=O)NC(C)(c3ccc4ccccc4c3)C2=O)CC1 (centres undefined)
(31) CCCN1CCN(C(=O)Cn2c(-c3cccs3)cc3cc(F)ccc32)CC1
(32) CCCN1CCN(C(=O)Cn2c(-c3cccs3)cc3ccccc32)CC1
entry no.,25,26,27,28,29,30,31,32
Nrf2 inh,x,-30%,u,-6%,-2%,3%,8%,17%
Nrf2 ARE act,u,1%,0%[9.22 µM],-1%,4%,-1%,4%,8%
miR-21 FLuc,x,-2%,-1%,9%,-5%,x,-18%,-10%
TCR activator,x,2%[46.1 µM],0%[46.1 µM],5%,x,0%,x,x
ClpP mod,4%,14µM*,-1%,22µM*,28µM*,-1%,4%,32µM*
A549 viability,x,1%,0%,10%,-2%,2%,0%,-4%

(33) CCS(=O)(=O)N1CCN(c2ccc(C(=O)N3CCOCC3)cc2[N+](=O)[O-])CC1
(34) CCS(=O)(=O)N1CCN(c2ccc(C(=O)NC3C4CC5CC(C4)CC3C5)cc2[N+](=O)[O-])CC1 (centres undefined)
(35) COc1cc(F)c(S(=O)(=O)N2CCCN(S(=O)(=O)c3cccc(N)c3)CC2)c(F)c1
(36) COc1cccc(CNC(=O)c2cc3oc4ccccc4c3n2C)c1OC
(37) CCOc1ccccc1CNC(=O)c1cc2oc3ccccc3c2n1CC
(38) Cc1cccc(CSc2ccc3nnc(CCNS(=O)(=O)c4ccccc4)n3n2)c1
(39) Cc1ccc(Cl)cc1N1CCN(c2cccc[n+]2C)CC1
(40) CSc1nc(C)cc(/C=C\c2ccccc2)c1C#N
entry no.,33,34,35,36,37,38,39,40
Nrf2 inh,u,u,26µM*!,u,u,-27%,8.2µM*,-18%
Nrf2 ARE act,0%,-1%,x,0%,3%,4%,-1%,u
miR-21 FLuc,8%,-4%,x,23%,15%,-7%,22%,-7%
TCR activator,1%,0%[46.1 µM],x,1%,2%,x,-9%[46.1 µM],-1%
ClpP mod,0%,25µM*,x,25µM*,32µM*!,-3%,1%,28µM*
A549 viability,-6%,-3%,10%,-7%,0%,-4%,3%,-1%

(41) CSc1nc(-c2ccccc2)cc(C)c1C#N
(42) CCCc1cc(=O)[nH]c(SCC(=O)c2c(N)n(C3CC3)c(=O)[nH]c2=O)n1
(43) Cc1c(Br)cnc2ccccc12
(44) Cc1cc2c(c(=O)n1CCN(C)C)C(c1ccncc1)C(C#N)=C(N)O2 (centres undefined)
(45) COc1ccc(C2C(C#N)=C(N)Oc3cc(C)n(Cc4ccncc4)c(=O)c32)cc1 (centres undefined)
(46) COc1ccc(CC(=O)Nc2cccc(-c3nnc(-c4ccco4)o3)c2)cc1
(47) COc1ccc(C(=O)Nc2cccc(-c3nnc(-c4ccco4)o3)c2)cc1
(48) O=C(Cc1ccc(Cl)cc1)Nc1ccc(-c2nnc(-c3ccco3)o2)cc1
entry no.,41,42,43,44,45,46,47,48
Nrf2 inh,-1%,-25%,x,3%,2%,6.5µM*,u,-19%
Nrf2 ARE act,u,0%,x,0%,0%,-1%,-1%,0%
miR-21 FLuc,0%,x,x,-3%,-4%,17%,18%,-31%
TCR activator,-6%,9%,x,1%,-5%,-3%,-1%,-13%
ClpP mod,x,-1%,-2%,2.5µM*,-5%,2%,-3%,32µM*
A549 viability,6%,-3%,x,0%,-2%,u,u,-21%

Source: PubChem BioAssay (National Center for Advancing Translational Sciences (NCATS))
